Experimental findings from PubChem BioAssay AID652257 (The Scripps Research Institute Molecular Screening Center, 2013) are described below.

Amino acid sequences for entries named in this document (tags omitted).
UniProt Q99873, whole entry: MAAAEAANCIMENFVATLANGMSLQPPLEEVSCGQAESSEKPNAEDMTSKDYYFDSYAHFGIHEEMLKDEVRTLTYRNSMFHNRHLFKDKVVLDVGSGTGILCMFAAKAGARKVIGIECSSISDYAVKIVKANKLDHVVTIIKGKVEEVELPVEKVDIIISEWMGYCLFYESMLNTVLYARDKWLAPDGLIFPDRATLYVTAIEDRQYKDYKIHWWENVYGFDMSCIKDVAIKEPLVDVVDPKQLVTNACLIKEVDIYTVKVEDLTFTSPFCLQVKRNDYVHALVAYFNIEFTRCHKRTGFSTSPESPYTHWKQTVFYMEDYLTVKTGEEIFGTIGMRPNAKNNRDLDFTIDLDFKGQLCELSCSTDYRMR

The list shows a part of the results, in another mix than the full data. Some salts and complexes are drawn in separate pieces, as the source files them; their charges need not balance. Calls of active or inactive are those of the source.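 Rule for the calls: active = inhibition above about 21% made by adding two undisclosed values (limit read from the data); inactive = the rest.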

The target of this assay is Protein arginine N-methyltransferase 1 (Homo sapiens) (UniProt Q99873). Kind of assay: human PRMT1 activity-probe blockers – biochemical, fluorescence polarization, primary screen (AID 652257). As to conditions: recombinant PRMT1, activity-based probe fluorescence polarization; at 2.79 µM; hits give high values. For orientation: In fluorescence polarisation assays a small probe gives low polarisation when free and higher when bound to something large.
Regarding `CP(=O)(Nc1ccc2c(c1)OCCO2)Oc1ccccc1` (centres undefined), the inhibition (usually the change of the read-out against control, counted positive when it falls) is inactive: -1.91%.

As to `Cc1ccccc1NP(C)(=O)Nc1ccccc1C`, the inhibition was inactive: -0.21%.

For the compound `O=[N+]([O-])c1cc([N+](=O)[O-])c(C(F)(F)F)c([N+](=O)[O-])c1O`, the inhibition was inactive: 7.34%.

Turning to `CP(=O)(Nc1ccc(SC(F)(F)F)cc1)Oc1ccc(F)cc1` (centres undefined), the inhibition was inactive: -5.81%.

Regarding `CCOP(C)(=S)SCC(=O)NC(C)(CC)C(=O)O` (centres undefined), the inhibition is inactive: -2.46%.

For `CCOP(=O)(CC)OCC`, the inhibition is inactive: 0.12%.

With `O=[N+]([O-])c1ccc(OP2(=O)COCCO2)cc1` (centres undefined), the inhibition was inactive: -1.88%.

`Cc1cc(-c2cccc3ccccc23)c(C)cn1.O=[N+]([O-])c1cc([N+](=O)[O-])c(O)c([N+](=O)[O-])c1`: the inhibition was inactive: 0.42%.

Take `O=[N+]([O-])c1cc([N+](=O)[O-])c(NCC2CCS(=O)(=O)C2)c([N+](=O)[O-])c1` (centres undefined): the inhibition is inactive: 4.96%.

On to `Cc1c(C(c2ccc3c(c2)OCO3)c2c(C)n(C)n(-c3ccccc3)c2=O)c(=O)n(-c2ccccc2)n1C.O=[N+]([O-])c1cc([N+](=O)[O-])c(O)c([N+](=O)[O-])c1`, for which the inhibition was inactive: 3.45%.

On to `COc1ccc(OP(C)(=O)Nc2cccc(Br)c2)cc1` (centres undefined), for which the inhibition is inactive: -1.01%.

`CN(C)CCOC(=O)C(O)(c1ccccc1)C1CCCCC1` (centres undefined): the inhibition is inactive: 3.96%.

On to `COc1ccc(NP(C)(=O)Oc2ccccc2OC)cc1` (centres undefined), for which the inhibition was inactive: 2.6%.

Turning to `Cc1c([N+](=O)[O-])cc([N+](=O)[O-])c(Br)c1[N+](=O)[O-]`, the inhibition is inactive: 1.04%.

In the case of `CCN(CC)CCCOC(=O)C(O)(c1ccccc1)C1CCCCC1` (centres undefined), the inhibition is inactive: 2.35%.

Turning to `CP(=O)(Nc1ccccc1)Oc1ccc(F)cc1` (centres undefined), the inhibition was inactive: -0.15%.

As to `O=[N+]([O-])c1cc([N+](=O)[O-])c(OC2CCCCC2O)c([N+](=O)[O-])c1` (centres undefined), the inhibition is inactive: 4.74%.

On to `CCCCCOc1ccc(NP(C)(=O)Oc2ccc(Cl)cc2Cl)cc1` (centres undefined), for which the inhibition is inactive: 4.19%.

As for `CCN(CC)CCCNc1ccccc1[N+](=O)[O-].O=[N+]([O-])c1cc([N+](=O)[O-])c(O)c([N+](=O)[O-])c1`, the inhibition was inactive: 0.7%.

Turning to `CCOC(=O)c1ccc(NP(C)(=O)Oc2ccc(F)cc2)cc1` (centres undefined), the inhibition was inactive: -0.62%.

Regarding `COc1ccc(OP(C)(=O)Nc2ccc(SC(F)(F)F)cc2)cc1` (centres undefined), the inhibition is inactive: -2.45%.

For `O=C(OC1CN2CCC1CC2)c1ccc([N+](=O)[O-])cc1` (centres undefined), the inhibition was inactive: -0.94%.

Take `O=C(OCCN1CCN(CCOCc2ccccc2)CC1)C(O)(c1ccccc1)c1ccccc1`: the inhibition was inactive: 1.23%.

In the case of `COc1ccc2c(c1O)-c1c(O)c(OC)cc3c1[C@H](C2)[N+](C)(C)CC3.O=[N+]([O-])c1cc([N+](=O)[O-])c([O-])c([N+](=O)[O-])c1[O-]`, the inhibition is inactive: -2.25%.

For `O=[N+]([O-])c1cc([N+](=O)[O-])c(Nc2ccc(Cl)cc2)c([N+](=O)[O-])c1`, the inhibition is inactive: 0.35%.

Take `CP(=O)(Nc1ccccc1F)Oc1ccccc1` (centres undefined): the inhibition is inactive: 1.66%.

For `CC(C)c1ccc(OP(C)(=O)Nc2ccc(SC(F)(F)F)cc2)cc1` (centres undefined), the inhibition is inactive: -1.61%.

On to `O=[N+]([O-])c1cc([N+](=O)[O-])c(Nc2ccccn2)c([N+](=O)[O-])c1`, for which the inhibition is inactive: -1.69%.

Consider `Cc1c(NP(C)(=O)Oc2ccc(C(C)C)cc2)c(=O)n(-c2ccccc2)n1C` (centres undefined), for which the inhibition was inactive: -2.9%.

Consider `COc1ccccc1OP(C)(=O)Nc1ccc(C)cc1C` (centres undefined), for which the inhibition is inactive: 1.83%.

On to `CP(=O)(Nc1ccccn1)Oc1ccccc1` (centres undefined), for which the inhibition was inactive: -0.15%.

`CCc1ccc(OP(C)(=O)O)cc1`: the inhibition is inactive: -0.82%.

As to `COc1ccccc1OP(C)(=O)Nc1ccc(Br)cc1` (centres undefined), the inhibition is inactive: 0.39%.

Consider `COc1ccc(OP(C)(=O)Nc2ccccn2)cc1` (centres undefined), for which the inhibition is inactive: -0.34%.

Regarding `CN(C)CCOC(=O)C(O)(c1ccccc1)C1CCCC1` (centres undefined), the inhibition was inactive: 3.62%.

For `CP(=O)(OCCOc1ccccc1)OCCOc1ccccc1`, the inhibition is inactive: -1.99%.

As to `CP(=O)(Nc1ccc(Cl)cc1Cl)Oc1ccccc1` (centres undefined), the inhibition was inactive: 5%.

Take `CCCCCCCCCCCCCCCC1C[N+](C)(C)CCOP(C)(=O)O1` (centres undefined): the inhibition is inactive: -4.62%.

In the case of `Cc1cc(C)cc(OP(C)(=O)Nc2cccc(C(F)(F)F)c2)c1` (centres undefined), the inhibition was inactive: 1.35%.

As to `O=C1C(O)=C([N+](=O)[O-])C(=O)C(O)=C1[N+](=O)[O-]`, the inhibition is inactive: 5.99%.

Take `COc1ccccc1OP(C)(=O)Nc1ccc(C)c(C)c1` (centres undefined): the inhibition was inactive: -2.46%.

Take `COc1ccc(OP(C)(=O)Nc2ccccc2Br)cc1` (centres undefined): the inhibition is inactive: 1.66%.

Turning to `Nc1ccc2c(ccc3cccnc32)n1.O=[N+]([O-])c1cc([N+](=O)[O-])c(O)c([N+](=O)[O-])c1`, the inhibition was inactive: 3.56%.

As to `CCOC(=O)c1ccc(NP(C)(=O)Oc2ccc(Cl)cc2)cc1` (centres undefined), the inhibition is inactive: -2.1%.

Take `CP(=O)(OC12CC3CC(CC(C3)C1)C2)OC12CC3CC(CC(C3)C1)C2`: the inhibition is inactive: 0.59%.

Turning to `CC(C)(C)c1ccc(OP(C)(=O)O)cc1`, the inhibition is inactive: 0.95%.

Consider `COc1ccccc1OP(C)(=O)Nc1ccccc1Br` (centres undefined), for which the inhibition is inactive: -2.15%.

Regarding `CP(=O)(Nc1ccc(Cl)cc1)Oc1ccc(F)cc1` (centres undefined), the inhibition was inactive: 1.83%.

`CN(C)C(=O)c1c([N+](=O)[O-])cc([N+](=O)[O-])cc1[N+](=O)[O-]`: the inhibition is inactive: 1.23%.

As to `COc1ccc(OP(C)(=O)Nc2ccc(Br)cc2)cc1` (centres undefined), the inhibition was inactive: 2.02%.

For the compound `CCN(CC)CC(O)COC(=O)C(O)(c1ccccc1)C1CCCCC1` (centres undefined), the inhibition was inactive: -1.39%.

On to `O=C(OCCCN1CCCC1)C(O)(c1ccccc1)C1CCCCC1` (centres undefined), for which the inhibition is inactive: 2.17%.

For the compound `COc1ccccc1OP(C)(=O)Nc1c(C)n(C)n(-c2ccccc2)c1=O` (centres undefined), the inhibition was inactive: 0.47%.

Regarding `CCc1ccc(OP(C)(=O)Nc2cccnc2)cc1` (centres undefined), the inhibition was inactive: 1.42%.

Turning to `CP(=O)(Oc1ccccc1)N1CCOC1=O` (centres undefined), the inhibition is inactive: 1.24%.

Consider `O=[N+]([O-])c1cc([N+](=O)[O-])c(O)c([N+](=O)[O-])c1.c1ccc(Oc2ccncc2)cc1`, for which the inhibition was inactive: 6.92%.

For `CCOC(=O)c1ccc(NP(C)(=O)Oc2ccc(OC)cc2)cc1` (centres undefined), the inhibition is inactive: 1.34%.

Consider `CCOP(C)(=S)SCC(=O)NC(C)C(=O)O` (centres undefined), for which the inhibition is inactive: -0.78%.

With `CP(=O)(Nc1ccccn1)Oc1ccc(Cl)cc1` (centres undefined), the inhibition was inactive: 1.83%.

Take `CP(=O)(Oc1ccccc1)OC(c1ccccc1)C(F)(F)F` (centres undefined): the inhibition is inactive: -2.47%.

In the case of `CP(=O)(Nc1ccc(SC(F)(F)F)cc1)Oc1ccc(Cl)cc1` (centres undefined), the inhibition was inactive: 3.62%.

`Cc1cccc(C)c1OP(C)(=O)Nc1ccc(SC(F)(F)F)cc1` (centres undefined): the inhibition is inactive: -0.17%.

For the compound `Cc1cc(C)cc(OP(C)(=O)Nc2ccc(SC(F)(F)F)cc2)c1` (centres undefined), the inhibition is inactive: 3.38%.

As to `CCc1ccc(OP(C)(=O)N2CCN(c3ccc([N+](=O)[O-])cc3)CC2)cc1` (centres undefined), the inhibition is inactive: 2.33%.

Regarding `CP(=O)(NC(=O)Nc1ccccc1)Oc1ccccc1` (centres undefined), the inhibition is inactive: -2.77%.

`CP(=S)(Nn1cnnc1)Oc1ccccc1` (centres undefined): the inhibition was inactive: -5.77%.

As for `CP(=O)(Nc1ccccc1Br)Oc1ccccc1` (centres undefined), the inhibition is inactive: 1.02%.

Take `COc1ccccc1OP(C)(=O)Nc1ccccc1` (centres undefined): the inhibition is inactive: 0.17%.

Turning to `Cc1ccc(NP(C)(=O)Oc2ccccc2)c(C)c1` (centres undefined), the inhibition is inactive: 3.27%.

For `COc1ccccc1OP(C)(=O)Nc1ccc(C)cc1` (centres undefined), the inhibition is inactive: 2.58%.

Consider `CCOC(=O)c1ccc(NP(C)(=O)Oc2ccccc2)cc1` (centres undefined), for which the inhibition was inactive: -2.18%.

Regarding `Cc1cc(C)cc(OP(C)(N)=O)c1` (centres undefined), the inhibition was inactive: -1.7%.

`COc1ccc(OP(C)(=O)Nc2cccc(F)c2)cc1` (centres undefined): the inhibition is inactive: -1.74%.

For `COc1ccccc1OP(C)(=O)Nc1cc(Cl)ccc1C` (centres undefined), the inhibition is inactive: 1.43%.

For the compound `O=[N+]([O-])c1cc([N+](=O)[O-])c(Nc2cccnc2)c([N+](=O)[O-])c1`, the inhibition was inactive: 3.65%.

`O=[N+]([O-])c1ccc2c(c1)C=Nc1ccccc1O2`: the inhibition is inactive: 0.58%.

On to `Cc1cccc(C)c1OP(C)(N)=O` (centres undefined), for which the inhibition is inactive: -2.68%.

As to `CC(C)(C)c1ccc(OP(C)(=O)Nc2ccc(SC(F)(F)F)cc2)cc1` (centres undefined), the inhibition was inactive: -0.16%.

Take `COc1ccccc1-c1ccccn1.O=[N+]([O-])c1cc([N+](=O)[O-])c(O)c([N+](=O)[O-])c1`: the inhibition was inactive: 0.69%.

`CCN(CC)CCCOC(=O)C(O)(c1ccccc1)c1ccccc1`: the inhibition is inactive: 7.68%.

As for `Cc1ccc(C)c(NP(C)(=O)Oc2ccccc2)c1` (centres undefined), the inhibition is inactive: -0.81%.

As for `CP(=O)(Nc1cccc(Br)c1)Oc1ccccc1` (centres undefined), the inhibition was inactive: 1.42%.

For `Cc1cc(C)cc(OP(C)(=O)Nc2ccccn2)c1` (centres undefined), the inhibition is inactive: -0.36%.

Consider `COc1ccccc1OP(C)(=O)Nc1cccc(Br)c1` (centres undefined), for which the inhibition is inactive: -0.79%.

On to `CCOC(=O)c1ccc(NP(C)(=O)Oc2cc(C)cc(C)c2)cc1` (centres undefined), for which the inhibition is inactive: -0.32%.

`Cc1cc(C)cc(OP(C)(=O)Nc2ccc(C)cc2C)c1` (centres undefined): the inhibition is inactive: -0.38%.

On to `CC1=NCCc2c1[nH]c1ccccc21.O=[N+]([O-])c1cc([N+](=O)[O-])c(O)c([N+](=O)[O-])c1`, for which the inhibition was inactive: 2.94%.

As to `O=C(O)c1cccc(Nc2c([N+](=O)[O-])cc([N+](=O)[O-])cc2[N+](=O)[O-])c1`, the inhibition is inactive: 1.35%.

Consider `CN1CCCCC1COC(=O)C1(O)c2ccccc2CCc2ccccc21` (centres undefined), for which the inhibition is inactive: -3.99%.

For `COc1ccccc1OP(C)(=O)Nc1c(C)cccc1C` (centres undefined), the inhibition was inactive: -0.5%.

On to `COc1ccc(-c2ccccn2)cc1.O=[N+]([O-])c1cc([N+](=O)[O-])c(O)c([N+](=O)[O-])c1`, for which the inhibition was inactive: -2.27%.

`CP(=O)(Nc1ccc(SC(F)(F)F)cc1)Oc1ccccc1` (centres undefined): the inhibition is inactive: -1.9%.

With `CCCOc1ccc(NP(C)(=O)Oc2ccc(Cl)cc2)cc1` (centres undefined), the inhibition was inactive: 1.25%.

On to `CCOC(=O)C(CC)C1=NC(C)(C)Cc2ccccc21.O=[N+]([O-])c1cc([N+](=O)[O-])c(O)c([N+](=O)[O-])c1` (centres undefined), for which the inhibition is inactive: -0.37%.

With `O=[N+]([O-])c1cc([N+](=O)[O-])c(Nc2nnnn2CCO)c([N+](=O)[O-])c1`, the inhibition was inactive: 3.62%.

`O=[N+]([O-])c1cc([N+](=O)[O-])c(-c2cnn(-c3ccccc3)c2)c([N+](=O)[O-])c1`: the inhibition was inactive: 7.8%.

In the case of `Cc1nc2ccc3ccccc3c2s1.O=[N+]([O-])c1cc([N+](=O)[O-])c(O)c([N+](=O)[O-])c1`, the inhibition is inactive: 18.8%.

As for `O=[N+]([O-])c1cc([N+](=O)[O-])c(-n2nnc3ccccc32)c([N+](=O)[O-])c1`, the inhibition was inactive: 3.99%.

`CN(Cc1cccnc1)C(=O)COc1ccc(Cl)c(Cl)c1.O=[N+]([O-])c1cc([N+](=O)[O-])c(O)c([N+](=O)[O-])c1`: the inhibition was inactive: 1.16%.
